## Binding of CDR-mutated scFvs to a peptide of the spike HR2 region

Reference: Engelhart et al. 2022, doi:10.1038/s41597-022-01779-4. File: FLAb, binding data.

The target is the same throughout: PDVDLGDISGINAS, from the HR2 region of SARS-CoV-2 spike.

Each scFv is VH, three GGGGS repeats, VL, as in the parent Ab-14, and differs from it in the CDRs of the light chain only.
VH: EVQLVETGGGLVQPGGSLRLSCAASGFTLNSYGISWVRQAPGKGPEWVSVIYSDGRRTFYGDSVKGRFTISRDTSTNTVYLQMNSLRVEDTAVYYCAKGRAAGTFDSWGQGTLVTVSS
VL: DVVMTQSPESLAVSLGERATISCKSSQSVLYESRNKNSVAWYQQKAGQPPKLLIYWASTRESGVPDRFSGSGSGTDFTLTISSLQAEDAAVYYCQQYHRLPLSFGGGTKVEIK

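The starting antibody came from a phage panning campaign against this peptide. In library AAYL50, one, two or three CDR residues were substituted; doubles and triples were drawn at random. AlphaSeq pools MATa yeast showing the antibodies with MATalpha yeast showing the peptide. Mating (16 h, 30 °C) was followed by selection of diploids and sequencing of their barcodes. The ratio of observed to expected reads was calibrated, replicate by replicate, on BCL2-family standards whose Kd was known from biolayer interferometry. Mating was done three times.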

Substitutions are numbered in sequence along the VL above, starting at 1 (not Kabat).
Values are log10 of the apparent Kd in nM; lower means stronger binding.
"n.d." marks a missing value. The strain was present, yet no cells mated with the target were sequenced in that replicate, which points to weak or no binding.
Nonspecific signal, from three strains lacking the peptide, appeared in 18% of pairings of library AAYL50, centred on 4.19 (5% of these signals below 2.99); values are not corrected for it.

| replicates, log10 nM | changes |
|---|---|
| n.d. n.d. 4.48 | R60N+H98N+R99T |
| n.d. n.d. n.d. | Q27Y+S58G+R99S |
| n.d. n.d. 5.35 | E32V+Q96P+L100D |
| n.d. n.d. n.d. | Q27V+R60E |
| n.d. 2.70 3.66 | T59W+S103V |
| 1.56 1.82 2.10 | K36H+A57R+T59P |
| n.d. n.d. n.d. | N35F+Y97S |
| 2.88 2.81 3.49 | R34E+S38K+R60K |
| 1.09 1.18 1.22 | T59Y+R99F+P101N |
| n.d. n.d. n.d. | S25K+S28Y+A57Y |
| -0.07 0.18 0.07 | S25V+Q27G |
| n.d. n.d. n.d. | V29N+A40W+E61I |
| n.d. n.d. n.d. | L30M+S38H+R60Y |
| n.d. n.d. n.d. | S28K+N37W+P101M |
| 0.66 1.26 0.75 | W56Y+P101K |
| n.d. n.d. 4.50 | S28T+T59F+Q96G |
| 5.25 n.d. n.d. | N35E+A40H+S103A |
| 2.73 3.41 2.96 | Q27V+E32G+R60I |
| 4.71 n.d. n.d. | S38E+Q96E+R99E |
| 3.64 n.d. n.d. | K24P+A57M+E61C |
| 1.69 1.45 1.60 | V29E+Y31F+S58M |
| 2.78 2.67 3.12 | K24N+L102Q |
| n.d. n.d. 4.94 | S25W+R34I+S38D |
| 0.60 0.85 0.83 | S33N+R34I+R99M |
| 0.01 0.62 0.14 | S25F+W56F |
| 4.06 n.d. n.d. | R60W+P101E+S103D |
| 4.19 3.90 n.d. | N37R+A40M+Y97H |
| 4.40 3.14 3.42 | N35L+E61G+S103W |
| 3.13 2.49 2.70 | K24T+S26P |
| n.d. n.d. 3.94 | S25P+A57D+L102W |
| 1.85 2.33 1.73 | K24V+Q27V+N35P |